This data set has as its system OE-19 xenograft. Description: Microdistribution in OE-19 esophageal xenograft model. Format: in vivo, mice. As to conditions: 24 h after injection. Here is the method:
For OE-19 model, NCR nu/nu homozygous athymic male nude mice (5-6 week old) were obtained from Taconic. Five mice per group were inoculated ectopically in the flank with 0.1 mL of the suspension containing 10×10^6 cells suspended in PBS.
In order to test the effect of targeting on liposome microdistribution in vivo, 24 hours before sacrifice, animals were injected with a mixture of EphA2 targeted non drug loaded placebo liposomes and a non-targeted non drug loaded placebo liposomes at dose of 1 micromole/liposome type/animal labeled with two different lipophilic fluorescent dyes DilC18(5)-DS and DilC18(3)-DS, respectively (EphA2-ILs/NT-Ls group) To control for differences in fluorescence between DilC18(5) and DilC15(3), one animal from each model was injected with the a mixture of non-targeted liposomes which should distribute equally in tissue (NT-Ls/NT-Ls group).
A second group of animals was injected with the anti-EphA2 antibody clone 1C1 (SEQ ID NO:39) at 5 mg/kg bw.
Non drug loaded liposomes are prepared by ethanol injection—extrusion method. […] Phospholipid concentration is measured by phosphate assay. Particle diameter is analyzed by dynamic light scattering. […] The ligand inserted liposomes are purified on Sepharose CL-4B column and analyzed by phosphate assay for lipid concentration and SDS-PAGE for antibody quantification. […]

The results in this text go back to US20180021294A1, “Ephrin Receptor A2 (EPHA2)-Targeted Docetaxel-Generating Nano-Liposome Compositions” (Merrimack Pharmaceuticals, Inc., priority 2016, published 2018).

B1: 1C1: EphA2 IgG antibody clone 1C1, SEQ ID NO:39, disclosed in PCT/US06/34894 (protein)
chain: EVQLLESGGGLVQPGGSLRLSCAASGFTFSHYMMAWVRQAPGKGLEWVSRIGPSGGPTHYADSVKGRFTISRDNSKNTLYLQMNSLRAEDTAVYYCAGYDSGYDYVAVAGPAEYFQHWGQGTLVTVSSASTKGPSVFPLAPSSKSTSGGTAALGCLVKDYFPEPVTVSWNSGALTSGVHTFPAVLQSSGLYSLSSVVTVPSSSLGTQTYICNVNHKPSNTKVDKKV[human IgG1 Fc not listed]
modifications: Synthetically Generated Sequence
For B1, the “biodistribution at the organ level” value is on record as “biodistribute to most analyzed organs in a very diffuse way” and the localization in skin result is recorded as “high staining in the epidermis”.
